# In patent US20130324493A1, “COMPOSITIONS COMPRISING NINGNANMYCIN AND USES THEREFOR” (North Carolina State University, priority 2012, published 2013):
# System: dollar spot (S. homoeocarpa)
# Settings: for Turf quality: 1-to-9 scale (9 = best), dollar spot trial
# [1] = Ningnanmycin 10WP 0.30 g/m^2, 7 d interval, Oct. 12, 2011
# [2] = Ningnanmycin 10WP 0.30 g/m^2, 7 d interval, Oct. 18, 2011
# [3] = Ningnanmycin 10WP 0.30 g/m^2, 7 d interval, Oct. 26, 2011
# [4] = Ningnanmycin 10WP 0.45 g/m^2, 14 d interval, Oct. 12, 2011
# [5] = Ningnanmycin 10WP 0.45 g/m^2, 14 d interval, Oct. 18, 2011
# [6] = Ningnanmycin 10WP 0.45 g/m^2, 14 d interval, Oct. 26, 2011
structure (smiles),measurement,setting,value
"CNCC(=O)NC(CO)C(=O)NC1C(C(N)=O)OC(n2ccc(N)nc2=O)C(O)C1O [ningnanmycin, 4-sarcosinamido-L-serinamido-4-deoxy-β-D-pyranoglucuronamido]",Turf quality,[1],7.1 a
same,Turf quality,[2],7.9 a
same,Turf quality,[3],7.6 a
same,Turf quality,"Ningnanmycin 10WP 0.45 g/m^2, 7 d interval, Oct. 12, 2011",6.4 b
same,Turf quality,"Ningnanmycin 10WP 0.45 g/m^2, 7 d interval, Oct. 18, 2011",7.9 a
same,Turf quality,"Ningnanmycin 10WP 0.45 g/m^2, 7 d interval, Oct. 26, 2011",7.6 a
same,Turf quality,[4],7.1 a
same,Turf quality,[5],7.9 a
same,Turf quality,[6],7.6 a
same,Turf quality,"Ningnanmycin 10WP 0.60 g/m^2, 14 d interval, Oct. 12, 2011",6.6 ab
same,Turf quality,"Ningnanmycin 10WP 0.60 g/m^2, 14 d interval, Oct. 18, 2011",7.4 a
same,Turf quality,"Ningnanmycin 10WP 0.60 g/m^2, 14 d interval, Oct. 26, 2011",7.1 a
same,dollar spot control (in words),"2010, 0.30 g/m^2, 7-day interval",best control
same,dollar spot control (in words),"2011, 0.45 g/m^2, 7-day interval, after the second application",completely eliminated dollar spot
same,Dollar spot incidence,"Ningnanmycin 10WP 0.15 g/m^2, 7 d interval, Aug. 3, 2010",0 infection centers per plot
same,Dollar spot incidence,"Ningnanmycin 10WP 0.15 g/m^2, 7 d interval, Aug. 11, 2010",0 infection centers per plot
same,Dollar spot incidence,"Ningnanmycin 10WP 0.15 g/m^2, 7 d interval, Aug. 17, 2010",0 infection centers per plot
same,Dollar spot incidence,"Ningnanmycin 10WP 0.15 g/m^2, 7 d interval, Jul. 14, 2010",2 infection centers per plot
same,Dollar spot incidence,"Ningnanmycin 10WP 0.15 g/m^2, 7 d interval, Jul. 21, 2010",0 infection centers per plot
same,Dollar spot incidence,"Ningnanmycin 10WP 0.15 g/m^2, 7 d interval, Jul. 27, 2010",1 infection centers per plot
same,Dollar spot incidence,"Ningnanmycin 10WP 0.15 g/m^2, 14 d interval, Aug. 3, 2010",37 infection centers per plot
same,Dollar spot incidence,"Ningnanmycin 10WP 0.15 g/m^2, 14 d interval, Aug. 11, 2010",23 infection centers per plot
same,Dollar spot incidence,"Ningnanmycin 10WP 0.15 g/m^2, 14 d interval, Aug. 17, 2010",16 infection centers per plot
same,Dollar spot incidence,"Ningnanmycin 10WP 0.15 g/m^2, 14 d interval, Jul. 14, 2010",4 infection centers per plot
same,Dollar spot incidence,"Ningnanmycin 10WP 0.15 g/m^2, 14 d interval, Jul. 21, 2010",18 infection centers per plot
same,Dollar spot incidence,"Ningnanmycin 10WP 0.15 g/m^2, 14 d interval, Jul. 27, 2010",3 infection centers per plot
same,Dollar spot incidence,"Ningnanmycin 10WP 0.30 g/m^2, 7 d interval, Aug. 3, 2010",0 infection centers per plot
same,Dollar spot incidence,"Ningnanmycin 10WP 0.30 g/m^2, 7 d interval, Aug. 11, 2010",0 infection centers per plot
same,Dollar spot incidence,"Ningnanmycin 10WP 0.30 g/m^2, 7 d interval, Aug. 17, 2010",0 infection centers per plot
same,Dollar spot incidence,"Ningnanmycin 10WP 0.30 g/m^2, 7 d interval, Jul. 14, 2010",1 infection centers per plot
same,Dollar spot incidence,"Ningnanmycin 10WP 0.30 g/m^2, 7 d interval, Jul. 21, 2010",0 infection centers per plot
same,Dollar spot incidence,"Ningnanmycin 10WP 0.30 g/m^2, 7 d interval, Jul. 27, 2010",0 infection centers per plot
same,Dollar spot incidence,"Ningnanmycin 10WP 0.30 g/m^2, 7 d interval, Oct. 4, 2011",2 infection centers per plot
same,Dollar spot incidence,[1],1 infection centers per plot
same,Dollar spot incidence,[2],1 infection centers per plot
same,Dollar spot incidence,[3],0 infection centers per plot
same,Dollar spot incidence,"Ningnanmycin 10WP 0.30 g/m^2, 7 d interval, Sep. 9, 2011",11 infection centers per plot
same,Dollar spot incidence,"Ningnanmycin 10WP 0.30 g/m^2, 7 d interval, Sep. 16, 2011",6 infection centers per plot
same,Dollar spot incidence,"Ningnanmycin 10WP 0.30 g/m^2, 7 d interval, Sep. 26, 2011",5 infection centers per plot
same,Dollar spot incidence,"Ningnanmycin 10WP 0.30 g/m^2, 14 d interval, Aug. 3, 2010",14 infection centers per plot
same,Dollar spot incidence,"Ningnanmycin 10WP 0.30 g/m^2, 14 d interval, Aug. 11, 2010",9 infection centers per plot
same,Dollar spot incidence,"Ningnanmycin 10WP 0.30 g/m^2, 14 d interval, Aug. 17, 2010",3 infection centers per plot
same,Dollar spot incidence,"Ningnanmycin 10WP 0.30 g/m^2, 14 d interval, Jul. 14, 2010",3 infection centers per plot
same,Dollar spot incidence,"Ningnanmycin 10WP 0.30 g/m^2, 14 d interval, Jul. 21, 2010",8 infection centers per plot
same,Dollar spot incidence,"Ningnanmycin 10WP 0.30 g/m^2, 14 d interval, Jul. 27, 2010",0 infection centers per plot
same,Dollar spot incidence,"Ningnanmycin 10WP 0.30 g/m^2, 14 d interval, Oct. 4, 2011",30 infection centers per plot
same,Dollar spot incidence,"Ningnanmycin 10WP 0.30 g/m^2, 14 d interval, Sep. 9, 2011",31 infection centers per plot
same,Dollar spot incidence,"Ningnanmycin 10WP 0.30 g/m^2, 14 d interval, Sep. 16, 2011",20 infection centers per plot
same,Dollar spot incidence,"Ningnanmycin 10WP 0.30 g/m^2, 14 d interval, Sep. 26, 2011",57 infection centers per plot
same,Dollar spot incidence,"Ningnanmycin 10WP 0.45 g/m^2, 7 d interval (raised from 0.15 g/m^2 starting 5 October), Oct. 12, 2011",5 infection centers per plot
same,Dollar spot incidence,"Ningnanmycin 10WP 0.45 g/m^2, 7 d interval (raised from 0.15 g/m^2 starting 5 October), Oct. 18, 2011",0 infection centers per plot
same,Dollar spot incidence,"Ningnanmycin 10WP 0.45 g/m^2, 7 d interval (raised from 0.15 g/m^2 starting 5 October), Oct. 26, 2011",0 infection centers per plot
same,Dollar spot incidence,"Ningnanmycin 10WP 0.45 g/m^2, 14 d interval, Oct. 4, 2011",5 infection centers per plot
same,Dollar spot incidence,[4],2 infection centers per plot
same,Dollar spot incidence,[5],1 infection centers per plot
same,Dollar spot incidence,[6],1 infection centers per plot
same,Dollar spot incidence,"Ningnanmycin 10WP 0.45 g/m^2, 14 d interval, Sep. 9, 2011",5 infection centers per plot
same,Dollar spot incidence,"Ningnanmycin 10WP 0.45 g/m^2, 14 d interval, Sep. 16, 2011",3 infection centers per plot
same,Dollar spot incidence,"Ningnanmycin 10WP 0.45 g/m^2, 14 d interval, Sep. 26, 2011",14 infection centers per plot
same,Dollar spot incidence,"Ningnanmycin 10WP 0.60 g/m^2, 14 d interval (raised from 0.30 g/m^2 starting 5 October), Oct. 12, 2011",5 infection centers per plot
same,Dollar spot incidence,"Ningnanmycin 10WP 0.60 g/m^2, 14 d interval (raised from 0.30 g/m^2 starting 5 October), Oct. 18, 2011",6 infection centers per plot
same,Dollar spot incidence,"Ningnanmycin 10WP 0.60 g/m^2, 14 d interval (raised from 0.30 g/m^2 starting 5 October), Oct. 26, 2011",7 infection centers per plot
same,Dollar spot incidence,"Ningnanmycin 10WP 015 g, 7 d interval, Oct. 4, 2011",27 infection centers per plot
same,Dollar spot incidence,"Ningnanmycin 10WP 015 g, 7 d interval, Sep. 9, 2011",42 infection centers per plot
same,Dollar spot incidence,"Ningnanmycin 10WP 015 g, 7 d interval, Sep. 16, 2011",60 infection centers per plot
same,Dollar spot incidence,"Ningnanmycin 10WP 015 g, 7 d interval, Sep. 26, 2011",30 infection centers per plot

# Read-outs that look alike come from different tables or passages of the source.
